Compounds with a hit are over-represented: about 13% of the library has one in this group of screens.
Lamin A splicing: changes lamin A minigene splicing in HeLa cells | HeLa LMNA splicing GFP/RFP minigene ratio, 48 h | Potency, µM (top dose mostly 46.1 µM), inactives show top-dose ratio change, negative = inhibition, usual class: inhibitors | hit rate 0.01% among 200,000; active = well fitted inhibition curve with a large enough effect in the signal ratio, with a control signal flat, not every such curve was filed as active; inconclusive = small, poorly fitted or top-dose-only effect, or effect the other way, or a change in a side signal; the % refers to the signal ratio; note: potency is the fitted concentration of half-maximal effect; % is set by controls: 0 for no effect and ±100 for the full control effect
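S3 HeLa stable clones carrying a lamin A-EGFP splicing minigene plus DsRed2 were seeded at 600 cells/well in Opti-MEM with 2% FBS, pin-dosed and incubated 48 h at 37°C. Acumen cytometry (488 nm) gave the GFP/RFP total-intensity ratio.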
G9a inh: blocks human histone lysine methyltransferase G9a | Q96KQ7 | G9a H3K9 monomethylation, AlphaScreen, 2 h | Potency, µM (highest dose often 102 µM), for the others: at the highest dose activity, negative = inhibition, most hits filed as inhibitors | hit rate 8.8% among 350,000; note: potency is the fitted concentration of half-maximal effect; % is set by controls: 0 for no effect and ±100 for the full control effect; nearly all actives have a fitted effect of over 75% in size
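G9a (20 nM) preincubated 15 min RT with compounds, then 500 nM biotinylated H3K9 peptide and 20 uM SAM added; 2 h RT reaction. Monomethyl-H3K9 product detected by AlphaScreen with anti-H3K9me1 antibody, streptavidin donor and anti-rabbit IgG acceptor beads.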
ALDH1A1 inh: ALDH1A1 (human) enzyme inhibition | hit rate 7.3% among 220,000 | Purified ALDH1A1, NADH fluorescence, propionaldehyde substrate | Potency, µM (highest dose often 75.3 µM), for the others: at the top dose activity, negative = inhibition, hits mostly inhibitors | P00352; active = well fitted inhibition curve with a large enough effect, not every such curve was filed as active; inconclusive = small, poorly fitted or top-dose-only effect, or another doubt; inactive = no such curve, though single readings can be large or run the other way;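 note: potency is the fitted concentration of half-maximal effect; plate controls were no enzyme wells and a reference inhibitor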
Sfp PPTase inh: inhibitors of Bacillus subtilis Sfp phosphopantetheinyl transferase. Q9F4F7. Biochemical Sfp PPTase activity, qHTS. Potency, µM, for the others: max response, negative = inhibition, most hits filed as inhibitors. actives 3.5% (n = 310,000). AID 1490; active means well fitted inhibition curve with a large enough effect; inconclusive means small, poorly fitted or top-dose-only effect, or another doubt; inactive means no such curve, though single readings can be large or run the other way;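 further: the enzyme is Sfp with the accession as filed and its product quenches rhodamine fluorescence; potency means the concentration at half of the fitted maximal effect; 0% = enzyme reaction without inhibitor and -100% = no enzyme wells; top concentration of the series not given in the record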
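Step 1, compound plus 15 nM Sfp-PPTase, 15 min, room temperature. Step 2, add rhodamine-CoA (5 uM) and BHQ-2-YbbR (12.5 uM). Step 3, read 525/598 nm fluorescence at 0 and 30 min.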
miR-21 reporter: raises the signal of a miR-21 reporter | HeLa miR-21 FLuc reporter, luciferase, 48 h | 340,000 tested, under 10 active | Potency, µM (titrated, usually from 38.3 µM), inactives show at the highest dose reporter change, positive = more light; active = well fitted rising curve with a large enough effect; inconclusive = small, poorly fitted or top-dose-only effect; inactive = no such curve, though single readings can be large or run the other way;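 further: % of control where 0% means no effect; miR-21 action dims this reporter so a rising signal means less miR-21 action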
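HeLa cells endogenously expressing miR-21, stably carrying CMV-driven firefly luciferase with a downstream miR-21 binding site, 2000 cells/well. Titrations up to approximately 40 uM, 48 hours; luciferase luminescence read.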
KDM4E inh: JMJD2E (human) inhibition | Potency, µM (top dose mostly 57.1 µM), without a hit: at the highest dose activity change, negative = inhibition, usual class: inhibitors | B2RXH2 | JMJD2E catalytic domain, FDH-coupled NADH fluorescence (FDH is formaldehyde dehydrogenase) | hit rate 1.6% among 230,000; active = well fitted inhibition curve with a large enough effect, not every such curve was filed as active; inconclusive = small, poorly fitted or top-dose-only effect, or another doubt; inactive = no such curve, though single readings can be large or run the other way;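 note: potency is the fitted concentration of half-maximal effect; 0% = wells with enzyme and -100% = buffer wells without enzyme; nearly all actives have a fitted effect of over 50% in size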
* hit, by the source's call; ? = inconclusive; . = no result; [ ] = another dose, or the depositor's remark. Unless noted, calls come from the whole dose curve; as a rule, active = well fitted curve in the direction sought with a large enough effect; inconclusive = small, poorly fitted or top-dose-only effect, or another doubt; inactive = no such curve, though single readings can be large; an effect the other way counts as inactive or inconclusive.

SMILES	Lamin A splicing	G9a inh	ALDH1A1 inh	Sfp PPTase inh	miR-21 reporter	KDM4E inh
CN(C)CCCN(C(=O)c1ccc(S(=O)(=O)N2CCc3ccccc3C2)cc1)c1nc2c(F)cccc2s1	.	-11.7%	.	4.2%	-3.1%	.
CCOc1cccc2sc(N(CCCN(C)C)C(=O)c3ccc(S(=O)(=O)N(C)CC4CCCO4)cc3)nc12 (stereo not drawn)	.	-6.9%	.	0.8%	3.7%	.
Cc1cc(C)c2nc(N(CCN(C)C)C(=O)c3ccc(S(=O)(=O)N(C)CC4CCCO4)cc3)sc2c1 (stereo not drawn)	.	79.4µM*	.	?	-9.2%	.
CCN(CC)CCN(C(=O)c1ccc(S(=O)(=O)N(CC)c2ccccc2)cc1)c1nc2c(OC)ccc(OC)c2s1	.	98.3%	.	-10.8%	1.5%	.
COc1ccc(C)c2sc(N(CCN(C)C)C(=O)c3ccc4ccccc4c3)nc12	.	50.1µM*	.	-29.7%	0.5%	.
COC(=O)c1cc2oc3ccccc3c2n1CC(=O)Nc1ccc(C)c(F)c1	.	-2.0%[59 µM]	.	.	2.3%	.
COc1ccc(CCNC(=O)CC(c2ccccc2)c2cccc(C)c2O)cc1OC (stereo not drawn)	-19.6%[46 µM]	-1.9%[59 µM]	1.2%	10.1%	27.9%	9.2%
CC(C)CCNC(=O)C1CCN(c2nc3ccccc3o2)CC1	?	?	6.5%	11.4%	-0.7%	2.7%
Cc1ccc(CN2CCC(C(=O)NCCC(C)C)CC2)o1	2.8%	31.6µM*	-12.0%	1.5%	-5.6%	-27.7%
CCOc1ccc(C(=O)NC(=S)Nc2ccc(N3CCC(C)CC3)cc2)cc1[N+](=O)[O-]	-13.5%	10µM*	7.94µM*	-9.7%	-1.2%	4.1%
CCCC(=O)N1CCN(c2ccc(NC(=O)c3ccc(OCC)c([N+](=O)[O-])c3)cc2)CC1	8.5%	68.8%[59 µM]	1.6%	7.4%	-2.6%	-4.1%
CCC(=O)N1CCN(c2ccc(NC(=S)NC(=O)c3ccc(OC)c([N+](=O)[O-])c3)cc2)CC1	-17.9%[46 µM]	.	11.2µM*	-15.0%	5.4%	12.3%
CCOc1ccc(C(=O)NC(=S)Nc2ccccc2N2CCC(C)CC2)cc1[N+](=O)[O-]	7.2%	-4.1%[59 µM]	?	25.2%	-2.3%	5.3%
COc1ccc(S(=O)(=O)NCCc2csc3nc(-c4ccc(Cl)cc4)nn23)cc1C	-4.8%[46 µM]	0.5%[59 µM]	.	.	5.1%	.
CCOC(=O)c1c(-c2ccc(Br)cc2)csc1NC(=O)c1ccc(C(C)(C)C)cc1	.	-1.4%[59 µM]	.	.	-2.6%	.
CCOc1ccc(-n2ccn3c(CC(C)CC(=O)O)nnc3c2=O)cc1 (stereo not drawn)	.	12.2%[59 µM]	.	.	-2.4%	.
CC(=O)c1c(NCCc2ccccc2)nc(=S)n(-c2ccccc2)c1C	-21.5%[46 µM]	-1.6%	-6.1%	-9.6%	-10.0%	-2.7%
CC(=O)c1c(NCc2ccccc2)nc(=O)n(-c2ccccc2)c1C	6.5%	-3.8%[59 µM]	14.1µM*	-15.1%	-22.9%	-4.3%
COc1ccccc1/C=C1\SC(=S)N(CCC(=O)Nc2nnc(C)s2)C1=O	.	-1.0%	.	-19.6%	4.9%	.
O=C(NCC(c1ccco1)N1CCN(c2ccc(F)cc2)CC1)C(=O)NC1CC1 (stereo not drawn)	.	-27.3%	.	.	.	.
COc1ccc(N2CCN(C(CNC(=O)C3CCCCC3)c3ccco3)CC2)cc1 (stereo not drawn)	.	44.7µM*	.	.	.	.
COc1ccc(N2CCN(C(CNC(=O)C(=O)NC3CC3)c3ccco3)CC2)cc1 (stereo not drawn)	.	44.7µM*	.	.	.	.
Cc1cc(C)c2[nH]c3nc(SCC(=O)O)nnc3c2c1	.	7.8%[59 µM]	.	8.7%	-11.3%	.
CC(=O)Nc1ccc(Nc2cc(C)nc3c(-c4ccccc4)cnn23)cc1	?	88.2%	?	-0.7%	10.2%	?
Cc1c(C)c2ccc(OC(C)C(=O)NCCCN3CCOCC3)c(C)c2oc1=O (stereo not drawn)	.	6.5%	.	6.8%	-3.5%	.

Additional structures follow.
SMILES	Lamin A splicing	G9a inh	ALDH1A1 inh	Sfp PPTase inh	miR-21 reporter	KDM4E inh
CCN1/C(=C/C(=O)c2ccco2)Sc2ccccc21	8.8%	?	25.1µM*	50.1µM*	-14.0%	?
CCC(=O)/C=C1/Sc2ccccc2N1CC	-5.6%	8.91µM*	3.55µM*	28.2µM*	-3.2%	-4.5%
CCC(=O)/C=C1/Sc2ccc(OC)cc2N1CC	13.6%	-0.2%[59 µM]	0.5%	-11.4%	4.9%	2.4%
C/C=C/C=C\C(=O)Nc1cccc(C2=NOC3(C2)C[C@@H](C(N)=O)N(C(=O)c2cc([N+](=O)[O-])cc([N+](=O)[O-])c2)C3)c1 (stereo partly drawn)	.	?	.	50.1µM*	3.3%	-4.1%
C/C=C\C(=O)Nc1cccc(C2=NOC3(C2)C[C@H](C(N)=O)N(C(=O)/C=C/CC)C3)c1 (stereo partly drawn)	.	10.3%[59 µM]	.	2.9%	1.7%	4.7%
C=C(C)C(=O)Nc1cccc(C2=NOC3(C2)C[C@@H](C(N)=O)N(C(=O)C(=C)C)C3)c1 (stereo partly drawn)	.	?	.	18.1%	-0.5%	-18.1%
C/C=C\C=C\C(=O)N1CC2(CC(c3cccc(NC(=O)CC(c4ccccc4)c4ccccc4)c3)=NO2)C[C@H]1C(N)=O (stereo partly drawn)	.	-40.6%[12.7 µM]	.	44.7µM*	11.6%	-24.2%
C/C=C\C=C/C(=O)Nc1cccc(C2=NOC3(C2)C[C@@H](C(N)=O)N(C(=O)/C=C/CC)C3)c1 (stereo partly drawn)	.	?	.	14.1µM*	-1.2%	-14.3%
C=C(C)C(=O)N1CC2(CC(c3cccc(NC(=O)/C=C\C=C/C)c3)=NO2)C[C@H]1C(N)=O (stereo partly drawn)	.	?	.	20µM*	-1.7%	2.9%
CCC(C)[C@@H]1NC(=O)N(CCCN2CCCC2=O)C1=O (stereo partly drawn)	.	0.8%	.	11.9%	-1.9%	.
Cc1ccc(NC(=O)C(Cc2ccccc2)NS(=O)(=O)c2ccc3c(c2)oc(=O)n3C)cc1F (stereo not drawn)	.	0.1%[59 µM]	.	.	-21.1%	.
CCCCN1C(=O)NC(c2ccc(OC)cc2)C(C(=O)OCc2ccccc2)=C1C (stereo not drawn)	.	?	.	1.4%	9.8%	.
COc1ccc(-c2noc(COC(=O)c3ccco3)n2)cc1OC	.	27.1%[12.7 µM]	.	.	.	.
OCC1NCC(O)C(O)C1O (stereo not drawn)	-7.9%	2.3%[59 µM]	8.8%	.	.	2.4%
C/C=C\C(=O)Nc1cccc(C2=NOC3(C2)C[C@@H](C(N)=O)N(C(=O)C2(C)CC2)C3)c1 (stereo partly drawn)	.	-1.2%[12.7 µM]	.	12.5%	1.8%	-3.6%
C/C=C\C=C/C(=O)Nc1cccc(C2=NOC3(C2)C[C@@H](C(N)=O)N(C(=O)/C=C/C=C\C)C3)c1 (stereo partly drawn)	.	?	.	3.55µM*	0.7%	?

Compound profiles (already shown). Values in the order: Lamin A splicing, G9a inh, ALDH1A1 inh, Sfp PPTase inh, miR-21 reporter, KDM4E inh
Shown for C/C=C\C(=O)Nc1cccc(C2=NOC3(C2)C[C@@H](C(N)=O)N(C(=O)C2(C)CC2)C3)c1 (stereo partly drawn) : ., -1.2%[12.7 µM], ., 12.5%, 1.8%, -3.6%
Shown for CCC(C)[C@@H]1NC(=O)N(CCCN2CCCC2=O)C1=O (stereo partly drawn) : ., 0.8%, ., 11.9%, -1.9%, .
Shown for CCC(=O)/C=C1/Sc2ccccc2N1CC : -5.6%, 8.91µM*, 3.55µM*, 28.2µM*, -3.2%, -4.5%
Shown for C=C(C)C(=O)N1CC2(CC(c3cccc(NC(=O)/C=C\C=C/C)c3)=NO2)C[C@H]1C(N)=O (stereo partly drawn) : ., ?, ., 20µM*, -1.7%, 2.9%

Screening results as filed in PubChem BioAssay.
